Data published in paper PMC8524670 (Pharmacology Research & Perspectives, 2021).
Where two headings read alike, the source gives them in different places.

The chains behind the UniProt entries cited, without tags or fusion partners. Residues count along the entry.
UniProt P08684, 2-503: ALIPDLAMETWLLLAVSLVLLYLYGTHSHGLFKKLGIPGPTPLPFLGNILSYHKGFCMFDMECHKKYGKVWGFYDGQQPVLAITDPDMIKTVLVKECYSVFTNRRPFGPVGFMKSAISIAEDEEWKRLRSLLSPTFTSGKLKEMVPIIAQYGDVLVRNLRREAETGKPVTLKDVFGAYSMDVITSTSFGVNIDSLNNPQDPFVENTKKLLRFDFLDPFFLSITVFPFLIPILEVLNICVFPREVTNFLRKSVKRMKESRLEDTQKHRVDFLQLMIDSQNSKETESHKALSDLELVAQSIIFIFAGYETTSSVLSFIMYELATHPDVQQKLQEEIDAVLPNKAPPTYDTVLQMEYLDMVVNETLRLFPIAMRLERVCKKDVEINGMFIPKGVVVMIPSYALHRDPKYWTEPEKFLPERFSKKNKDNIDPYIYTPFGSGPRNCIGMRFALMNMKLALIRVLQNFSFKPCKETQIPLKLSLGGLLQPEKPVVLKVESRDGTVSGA
UniProt P33261, whole entry: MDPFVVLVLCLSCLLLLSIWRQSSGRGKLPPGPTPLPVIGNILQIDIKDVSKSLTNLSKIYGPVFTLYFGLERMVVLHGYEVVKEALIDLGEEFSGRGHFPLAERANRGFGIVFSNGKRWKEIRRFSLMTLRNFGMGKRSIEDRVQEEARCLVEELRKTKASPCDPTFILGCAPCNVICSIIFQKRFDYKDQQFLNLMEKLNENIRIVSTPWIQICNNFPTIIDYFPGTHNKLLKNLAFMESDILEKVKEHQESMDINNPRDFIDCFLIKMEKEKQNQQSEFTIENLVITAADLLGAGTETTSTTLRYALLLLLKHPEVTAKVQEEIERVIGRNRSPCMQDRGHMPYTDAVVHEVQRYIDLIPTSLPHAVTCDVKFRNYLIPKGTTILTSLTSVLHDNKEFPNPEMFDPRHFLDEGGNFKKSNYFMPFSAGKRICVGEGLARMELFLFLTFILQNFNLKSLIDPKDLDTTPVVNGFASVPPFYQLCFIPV

Tests used:
[1] = target: CYP3A (Homo sapiens, UniProt P08684); experiment: CYP reversible inhibition in HLMs
[2] = target: CYP2C19 (Homo sapiens, UniProt P33261); experiment: CYP reversible inhibition in HLMs

C=CC(=O)N1CCC([C@@H]2CCNc3c(C(N)=O)c(-c4ccc(Oc5ccccc5)cc4)nn32)CC1 [zanubrutinib]
Ki [1]: 5.6 µM | Ki ([1]; Ki, midazolam, Ki = IC50/2): 7.15 µM | Ki ([1]; Ki, testosterone, Ki = IC50/2): 30.3 µM | Ki ([1]; Kiu, testosterone, unbound Ki): 23.9 µM | Ki [2]: 3 µM | Ki ([2]; Ki, S-mephenytoin, Ki = IC50/2): 3.79 µM
